# Laboratory results from patent US20060074046A1, “Oral administration of decitabine salt” (priority 2004, published 2006).
# Read-outs that look alike come from different tables or passages of the source.
# Columns and labels:
# [1] = 0.05 M phosphate buffer, 0.5 mg/mL, ambient
# [2] = Hygroscopicity, weight gain in 1 week at relative humidity; type: physicochemical; details: solid state
Substance,Potency Found (%) At pH 2.5 ([1]; t = 0.5 hr) [%],Potency Found (%) At pH 7.0 ([1]; t = 0.5 hr) [%],Potency Found (%) At pH 2.5 ([1]; t = 24 hr) [%],Potency Found (%) At pH 7.0 ([1]; t = 24 hr) [%],Hygroscopicity-% weight gain in 1 week ([2]; 56% RH) [%],Hygroscopicity-% weight gain in 1 week ([2]; 98% RH) [%]
decitabine citrate [Compound 12],57.50,92.01,50.64,88.35,5.20,7.03
decitabine succinate [Compound 14],62.81,87.35,54.89,80.58,5.56,8.25
